# Test results as given in patent US20110098284A1, “Methods and compositions for treating pain” (priority 2005, published 2011).
# Where two headings read alike, the source gives them in different places.
# Assays:
# [1] = system: marginal vein of each ear; test: Histopathological evaluation of injection sites (Example 11); format: in vivo, New Zealand White rabbits
# [2] = entire range of dilution (4-3200 fold), after 1 minute and 24 hours
# [3] = water at 20° C. as reference
# [4] = system: marginal vein of each ear; test: Acute venous irritation of unsalified NSAIDs versus ethylenediamine and piperazine salts, Draize erythema and edema scores (Example 11); settings: Wilcoxon Signed-Ranks test
substance,measurement,setting,value
ketoprofen-piperazine,incidence of inflammatory cell infiltrates,[1]; at the end of needle progression and 1 cm away from the end of progression,low
same,mean intensity (severity) of edema and infiltrates,[1]; injection site histopathology,none to negligible
same,static dilution test (precipitation or turbidity),[2],passed
same,viscosity,[3]; 12.7 mg/mL solution,1.12 Cp
same,viscosity,[3]; 50 mg/mL solution,1.25 cP
same,ionic strength,12.7 mg/mL solution,0.225
same,ionic strength,50 mg/mL solution,0.5
same,edema score compared with the respective unsalified NSAID,[4]; 1-hour post-infusion,significantly lower
same,erythema score compared with the respective unsalified NSAID,[4]; 1-hour post-infusion,significantly lower
same,edema score compared with the respective unsalified NSAID,[4]; 24-hour post-infusion,significantly lower
same,erythema score compared with the respective unsalified NSAID,[4]; 24-hour post-infusion,significantly lower
